Laboratory results as given in patent US6517864B1 (Pharmacia AB, priority 1998, dated 2003).

Legend:
rabbit skin = assay: Primary skin irritation study in the rabbit, drug substances, 24 hours exposure; assay type: in vivo; settings: for mean score for erythema / mean score for oedema: 0.5 g, read 1, 24, 48 and 72 hours after
Procedure: Primary skin irritation study in the rabbit and test for delayed contact hypersensitivity using the Guinea Pig Maximization Test (performed by Scantox, Denmark).
0.5 g of each test material were moistened with 0.5 ml distilled water and applied on the rabbit. After 24 hours the treated skin was cleaned and after additional 1, 24, 48 and 72 hours the skin reactions were read.

[1] = poor metabolizer, after tolterodine 2 mg bid; cited from earlier work

N,N-dilso-propyl-3′-(2-hydroxy-5-methylphenyl)-3-phenylpropanamine [Tolterodine]
classification as skin irritant (rabbit skin): should not be classified as skin irritants | mean score for erythema (rabbit skin): 0.1 | mean score for oedema (rabbit skin): 0.0 | average serum concentration (C) [1]: about 10 μg/L

tolterodine L-tartrate
classification as skin irritant (rabbit skin): should not be classified as skin irritants | mean score for erythema (rabbit skin): 0.0 | mean score for oedema (rabbit skin): 0.0
